“And” between values parts separate entries of the source, which are not always exact repeats. Equal entries are not always repeated. The entries are a selection whose mix differs from that of the whole data set. The source made the active and inactive calls. Cut-off read from the data, not from the text of the source: active = max activation above about 30%; inactive = the rest.
Each compound was assayed against D(3) dopamine receptor (Homo sapiens) (UniProt P35462) (assay: qHTS of D3 Dopamine Receptor Agonist: qHTS). Details: D3R DiscoveRx beta-arrestin cells, luminescence, 90 min; stronger effect = higher value.
Source text: D3 DARs represent a very important target for the treatment of several neuropsychiatric disorders. Indeed, one of the most promising therapeutic applications for the D3 DAR is in the area of addiction and related disorders. […] These findings have been observed with a number of addictive substances including cocaine, amphetamine, nicotine, and alcohol. […] Antagonism of the D3 DAR may also be therapeutic in the treatment of schizophrenia or psychosis. […] Since the D3 DAR is expressed in areas of the CNS associated with the control of mood and emotion, it has been hypothesized that selective antagonism of the D3 DAR may be effective in treating psychosis without inducing the motor side effects typically seen with D2 DAR antagonists.
This part of the project aims to discover novel agonist.
NIH Chemical Genomics Center [NCGC]
NIH Molecular Libraries Probe Centers Network [MLPCN]
Assay Submitter (PI): David Sibley, NINDS
Freshly passaged cells are plated in 1536 well white, solid bottom plates at a density of 1500 cells/well in 3microl of complete media. After an overnight incubation at 37 degrees C in 5% CO2, cells are loaded with 23nl of test compound from the compound library (as well as dopamine controls) using a 1536 pintool and incubated at 37 degrees C for 90 minutes. Two microliters of DiscoveRx reagent is then added to all cells, and they are incubated for an additional 30 - 60 minutes at room temperature. Following incubation, luminescence is measured on a ViewLux CCD-based luminometer reader using a 20 sec exposure time.
Note: 0% is about no effect.

The chains behind the UniProt entries cited, without tags or fusion partners.
UniProt P35462, whole entry: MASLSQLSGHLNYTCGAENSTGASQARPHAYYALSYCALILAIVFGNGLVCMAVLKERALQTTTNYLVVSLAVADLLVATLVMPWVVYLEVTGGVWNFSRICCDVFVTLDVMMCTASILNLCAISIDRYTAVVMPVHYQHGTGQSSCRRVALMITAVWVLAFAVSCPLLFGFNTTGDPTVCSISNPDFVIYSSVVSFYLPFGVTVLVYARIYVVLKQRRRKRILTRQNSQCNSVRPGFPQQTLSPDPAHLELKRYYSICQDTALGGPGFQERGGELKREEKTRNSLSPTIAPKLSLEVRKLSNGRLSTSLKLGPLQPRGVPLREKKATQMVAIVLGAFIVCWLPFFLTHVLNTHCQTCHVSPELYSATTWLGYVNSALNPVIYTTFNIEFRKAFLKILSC

Compound | max activation
CN(CCCl)CCCl | inactive: 3.73%
CCC(=O)N(c1ccccc1)C1(COC)CCN(CCn2nnn(CC)c2=O)CC1 | inactive: 5.82% and inactive: -9.63%
CCC(=O)N(c1ccccc1)C1(COC)CCN(CCc2cccs2)CC1 | inactive: -22.9% and inactive: -65%
